## AlphaSeq binding of Ab-95 light chain variants to a spike HR2 peptide

From the AlphaSeq antibody data of Engelhart et al. 2022 (doi:10.1038/s41597-022-01779-4), copy in the FLAb collection.

The target is the same throughout: PDVDLGDISGINAS, from the HR2 region of SARS-CoV-2 spike.

Ab-95 is the parent antibody, in scFv form: VH, then the linker GGGGSGGGGSGGGGS, then VL. The heavy chain is unchanged in all variants.
VH: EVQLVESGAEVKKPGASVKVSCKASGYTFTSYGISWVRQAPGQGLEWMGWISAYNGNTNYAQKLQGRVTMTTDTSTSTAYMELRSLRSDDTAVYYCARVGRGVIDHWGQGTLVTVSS
VL: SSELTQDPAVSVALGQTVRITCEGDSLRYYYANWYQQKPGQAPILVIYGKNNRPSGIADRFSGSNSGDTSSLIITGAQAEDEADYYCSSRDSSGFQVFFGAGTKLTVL

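In library AAYL52, one, two or three CDR residues were substituted; doubles and triples were drawn at random. The assay is AlphaSeq: two haploid yeast populations carry antibody and antigen on their surface. After mating in shaken culture at 30 °C for 16 h, diploids were selected and their barcode pairs sequenced. A regression on co-assayed BCL2-family reference pairs converts the normalised counts of each replicate to an apparent Kd. The assay was run in three technical replicates.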

Substitutions are numbered in sequence along the VL above, starting at 1 (not Kabat).
Every variant below is changed at R53 of the VL (sequential numbering).
Numbers give log10(Kd / nM), so 0 is 1 nM and 3 is 1 µM. Smaller is tighter.
A pair that was not seen in that replicate is written "nd"; this usually means weak binding, but a binder can also be missed.

Variant L27G+R53K+S55M gave nd, nd, nd. Variant D25A+R53H gave 2.56, 2.30, 1.91. Variant K50I+R53V+S88Y showed 4.40, 4.85, nd. With Y31I+R53C the result was 3.67, nd, 4.73. For G49H+R53K+F98V, the assay gave 3.52, 3.58, nd. With R28S+R53S+V97H the result was 3.82, 3.25, nd. With Y30D+R53D+S92I the result was nd, nd, nd.

Variant K50E+R53H+Q96T showed 3.56, 3.06, 4.13. For G24R+S26V+R53A, the assay gave 5.23, nd, nd. Variant Y29T+R53Y+D91H gave nd, 4.33, 4.46. With Y29P+R53K+S92V the result was 3.72, 3.66, 4.19. Variant A32I+R53Y+R90P showed nd, nd, nd. Variant Y31M+R53T+S88L showed nd, nd, nd. Variant D25Y+Y30S+R53N showed 2.55, 2.52, 1.95.

Variant D25Y+R53Y+S88E showed 4.55, nd, nd. Variant E23H+R53I+G94A gave 2.39, 2.87, 3.20. Variant S26D+Y29K+R53W gave nd, nd, 4.06. For E23C+R53W+S89Q, the assay gave nd, nd, nd. Variant Y29F+R53N showed nd, nd, 3.49. With R53S+P54F+Q96S the result was 3.28, nd, 3.23. With A32R+R53P+F98K the result was 4.31, nd, 3.95.

Variant G24W+L27A+R53G showed 4.69, 5.32, nd. Variant R53A+R90A+G94Y showed nd, 3.71, 4.19. Variant Y31E+G49F+R53A gave nd, 3.92, 3.19. Variant K50I+R53F showed nd, nd, nd. With G49D+R53P+S92R the result was 3.07, nd, nd. For Y31C+N51C+R53M, the assay gave nd, nd, nd. For R53E+S93F+F95D, the assay gave nd, 4.45, nd.

Variant Y30Q+R53K+S92I gave 0.97, 0.83, 0.39. With E23I+R53E+V97P the result was nd, nd, nd. For R53N+S55G+F95T, the assay gave 2.38, nd, nd. For R53I+F95Q, the assay gave 2.48, 2.97, 2.47. With Y31I+R53Y+D91G the result was nd, 5.07, nd. With Y31P+R53K+S92H the result was 1.27, 1.38, 0.78. For S26H+R53Y+S89E, the assay gave 5.00, nd, nd.

Variant R53C+S93Y+G94K showed 3.97, nd, nd. For N52E+R53P+F95N, the assay gave 3.16, nd, 3.30. With L27Y+Y31I+R53W the result was nd, nd, nd. With Y31S+R53L+D91K the result was 3.44, 3.61, 2.83.

Extract of 5 entries:

{"changes": "Y29P+R53K+S92V", "log10 Kd, replicates": "3.72, 3.66, 4.19"}
{"changes": "Y31M+R53T+S88L", "log10 Kd, replicates": "nd, nd, nd"}
{"changes": "G24W+L27A+R53G", "log10 Kd, replicates": "4.69, 5.32, nd"}
{"changes": "G49H+R53K+F98V", "log10 Kd, replicates": "3.52, 3.58, nd"}
{"changes": "E23I+R53E+V97P", "log10 Kd, replicates": "nd, nd, nd"}

In this assay the parent's reference entry averaged 2.31; its copy inside this library read 2.25.
Three control strains display no target. For library AAYL52, 28% of the pairings with them gave a signal, with a median of 3.91 and one signal in twenty below 2.90, so weak values seen in few replicates may be background.